# Measured vapor pressure values of organic chemicals

From the experimental data distributed with OPERA 2.9.

Vapor pressure is log10 of mmHg; the set covers 15 to 30 °C, mostly 20 to 25 °C.
"via" names the databases from which the curators took the value.

structure (SMILES),log VP (log10 mmHg),via
CC(=O)Oc1ccc([N+](=O)[O-])cc1,-2.018,eChemPortal
NCCOCCN,-0.149,eChemPortal
CCCC/C=C\CCCCCCCCO,-4.225,OCHEM
C[C@@]12CCC(=O)C=C1CC[C@H]1[C@H]2CC[C@]2(C)[C@@H]1CC[C@]21CCC(=O)O1,-11.37,eChemPortal
C=C(C)C(=O)OCCOCCOCCOC(=O)C(=C)C,-3.238,eChemPortal
Clc1cccc(-c2c(Cl)cccc2Cl)c1Cl,-2.876,OCHEM
Cc1ccc(C(C)NC(=O)[C@@H](NC(=O)OC(C)C)C(C)C)cc1 (some centres undefined),-9.227,OCHEM
C[C@H](CCC(=O)O)[C@H]1CC[C@H]2[C@@H]3[C@H](O)C[C@@H]4C[C@H](O)CC[C@]4(C)[C@H]3CC(=O)[C@]12C,-7.728,eChemPortal
CCCCCC(CN)CCC (centres undefined),-0.853,eChemPortal
CC(C)CC(C)(O)C#CC(C)(O)CC(C)C (centres undefined),-2.333,eChemPortal
CC(=O)C1CCCCC1=O (centres undefined),-0.932,OCHEM
Clc1ccc(-c2c(Cl)cccc2Cl)cc1Cl,-4.165,OCHEM
Clc1cc(Cl)c(Oc2c(Cl)cc(Cl)c(Cl)c2Cl)c(Cl)c1,-7.896,OCHEM
OCC1COC(Cn2ccnc2)(c2ccc(Cl)cc2Cl)O1 (centres undefined),-8.592,eChemPortal
O=C1OC(=O)C2CCCCC12 (centres undefined),-2.634,eChemPortal
Clc1cc(Cl)c(-c2c(Cl)c(Cl)c(Cl)c(Cl)c2Cl)c(Cl)c1Cl,-6.015,OCHEM
CCOc1cc(C)ccc1O,-1.377,OCHEM
CC(C)[NH2+][B-](F)(F)F,-2.663,eChemPortal
Nc1ccc(C(c2ccc(N)cc2)c2ccc(N)cc2)cc1,-10.43,eChemPortal
C=CC(=O)OCCOc1ccccc1,-2.755,eChemPortal
CCCCCC1(C)CCC(C)(C)C1=O (centres undefined),-1.161,eChemPortal
O=Cc1cccc2c1OC(F)(F)O2,-0.534,eChemPortal
CCCCCCCCCCCC1=NC(C)(C)CO1,-1.943,eChemPortal
CC(O)COCC(C)O (centres undefined),-1.523,PubChem
COc1ccc(/C=C(\C#N)C(=O)O)cc1OC,-5.333,eChemPortal
CC(O)COc1ccccc1 (centres undefined),-2.393,"PubChem, eChemPortal"
C=C(C)C(=O)OCCOCCOCCOCC,-3.238,eChemPortal
CCCC1CCCC(C2CCCC(c3cc(F)c(F)c(F)c3)C2)C1 (centres undefined),-6.117,eChemPortal
CCO[Si](C)(N(C)C(=O)c1ccccc1)N(C)C(=O)c1ccccc1,-4.912,eChemPortal
CC(=O)O.Nc1ccc(/N=N/c2ccccc2)c(N)c1,-6.921,eChemPortal
C[N+](C)(C)[O-],-0.754,eChemPortal
CC(=O)OC1(C)CCOC(CC(C)C)C1 (centres undefined),-1.835,eChemPortal
COC1(OC)CCCCCCCCCCC1,-0.862,eChemPortal
FC(C(F)(F)F)C(F)(F)Oc1cc(Cl)ccc1Cl (centres undefined),-0.725,eChemPortal
CC=CCCC1CCCC(=O)O1 (centres undefined),-2.914,eChemPortal
CCCCCCCCOC(=O)[C@@H](C)Oc1ccc(Cl)cc1C,-4.858,eChemPortal
FC(F)(F)c1nc2c(Cl)c(Cl)ccc2[nH]1,-4.398,PubChem

Excerpt, the opening 2 entries:

structure (SMILES)	log VP (log10 mmHg)	via
CC(=O)Oc1ccc([N+](=O)[O-])cc1	-2.018	eChemPortal
NCCOCCN	-0.149	eChemPortal

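OPERA's authors assembled the values from existing databases and did not measure them anew. A listed value is a point estimate from one report or more. Conditions of the individual experiments are not part of the data. A value may pool stereoisomers or salt forms, and the file does not say which form was measured. Some upstream entries may be estimates or bounds without being marked so.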